According to patent US20150218251A1 (NATIONAL CHENG KUNG UNIVERSITY, published 2015):

Assays:
integrin αIIbβ3 = integrin αIIbβ3 (UniProt P08514 32-1039; P05106 27-788); test: cell-based or functional assay
integrin αvβ3 = integrin αvβ3 (UniProt P06756 31-1048; P05106 27-788); test: cell-based or functional assay

B1: FNIII 9-10 variant, L1408P (SEQ ID NO: 62, VRARGDNPDSSK) (designed binder)
chain: HHHHHHGLDSPTGIDFSDITANSFTVHWIAPRATITGYRIRHHPEHFSGRPREDRVPHSRNSITLTNLTPGTEYVVSIVALNGREESPPLIGQQSTVSDVPRDLEVVAATPTSLLISWDAPAVTVRYYRITYGETGGNSPVQEFTVPGSKSTATISGLKPGVDYTITVYAVRARGDNPDSSKPISINYRT
Question: Which results are given for B1?
Answer: IC50, cell adhesion assay (integrin αIIbβ3): > 1.25 µM; IC50, inhibition of ADP-induced platelet aggregation (integrin αIIbβ3): > 21.5 µM; IC50, cell adhesion assay (integrin αvβ3): ~3.71 µM
